Molecules are shown by their SMILES. Only a part is listed here, and it is no random draw. Activity calls are given as the source filed them. Rule as the data show it: active = inhibition above about 43%; inactive = the rest.

Sequences of proteins named here, by UniProt entry; tags and fusion partners are left off.
UniProt Q4J6C6, whole entry, looked up: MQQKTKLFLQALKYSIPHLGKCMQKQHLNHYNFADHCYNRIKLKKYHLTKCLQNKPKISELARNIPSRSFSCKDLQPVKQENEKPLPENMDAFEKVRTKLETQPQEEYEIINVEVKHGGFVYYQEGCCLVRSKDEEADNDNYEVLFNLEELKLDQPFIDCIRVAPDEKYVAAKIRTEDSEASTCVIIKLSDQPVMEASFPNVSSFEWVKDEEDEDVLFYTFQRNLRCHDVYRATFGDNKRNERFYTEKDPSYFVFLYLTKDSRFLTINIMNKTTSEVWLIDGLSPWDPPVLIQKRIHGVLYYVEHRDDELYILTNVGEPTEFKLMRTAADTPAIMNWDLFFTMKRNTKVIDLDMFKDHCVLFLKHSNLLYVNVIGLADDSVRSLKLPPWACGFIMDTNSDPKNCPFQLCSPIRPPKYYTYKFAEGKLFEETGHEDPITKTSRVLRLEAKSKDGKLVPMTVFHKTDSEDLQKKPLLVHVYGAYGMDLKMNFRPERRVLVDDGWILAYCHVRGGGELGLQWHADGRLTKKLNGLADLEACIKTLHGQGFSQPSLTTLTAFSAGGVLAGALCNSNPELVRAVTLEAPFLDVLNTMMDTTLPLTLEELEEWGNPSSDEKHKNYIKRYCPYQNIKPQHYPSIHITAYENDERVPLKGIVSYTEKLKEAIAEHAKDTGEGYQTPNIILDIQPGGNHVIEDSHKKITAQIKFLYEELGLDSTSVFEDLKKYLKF

This note sets out measurements from PubChem BioAssay AID2803 (The Scripps Research Institute Molecular Screening Center, 2010).

For the test, the target named is Prolyl endopeptidase-like (Homo sapiens) (UniProt Q4J6C6). Kind of test: human PREPL enzyme inhibitors, confirmation, biochemical, fluorescence polarization (AID 2803).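 Also: 0% = protein with DMSO and 100% = wells lacking protein.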 The settings on record: recombinant PREPL, fluorescence polarization activity probe; at 5.96 µM; active compounds read high. A general note: Polarisation of emitted light reports the rotation of a fluorescent probe.
As for `CN(C(=O)Cc1ccc(Cl)c(Cl)c1)[C@H]1CCCC[C@H]1N1CCCC1`, the inhibition is active: 52.6%.

As a reminder, the inhibition is the change of the read-out against control, counted positive when it falls.
